EP2790511B1 (Merck Sharp & Dohme Corp., priority 2011, dated 2013)

What was measured:
hROMK (hKir1.1) = biological target: T1, hROMK (hKir1.1) (Homo sapiens, UniProt P48048); test: Thallium Flux Assay; format: cell-based
T1 construct: expressed in transfected cells
T1 sequence (P48048 1-391): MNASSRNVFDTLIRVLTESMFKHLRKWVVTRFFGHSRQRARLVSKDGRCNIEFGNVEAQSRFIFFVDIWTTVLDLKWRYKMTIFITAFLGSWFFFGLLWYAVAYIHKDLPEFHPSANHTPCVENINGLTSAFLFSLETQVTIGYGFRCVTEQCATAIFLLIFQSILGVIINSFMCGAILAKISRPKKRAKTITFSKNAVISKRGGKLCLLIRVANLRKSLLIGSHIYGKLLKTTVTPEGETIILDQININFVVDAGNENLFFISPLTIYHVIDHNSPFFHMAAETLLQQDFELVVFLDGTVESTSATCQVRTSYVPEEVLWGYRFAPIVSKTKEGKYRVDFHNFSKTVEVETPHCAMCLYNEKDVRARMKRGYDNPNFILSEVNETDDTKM
Experimental: Cell Culture Conditions- HEK293 cells stably expressing hROMK (hKir1.1) were grown at 37°C in a 10%CO2 humidified incubator in complete growth media: Dulbecco's Modified Eagle Medium supplemented with non-essential amino acids, Penicillin/Streptomycin/Glutamine, G418 and FBS. At >80% confluency, aspirate the media from the flask and rinse with 10 mL Calcium/Magnesium-free PBS. […] To dislodge the cell, gently bang the side of the flask with your hand. Triturate the cells completely and then transfer the cells to 25 mL complete media. Centrifuge at 1,500 rpm for 6 min followed by resuspension in complete growth media and determine cell concentration. […] Under ideal growth conditions and appropriate tissue culture practices, this cell line is stable for 40-45 passages.
• FluxOR™ Reagent (Component A) • FluxOR™ Assay Buffer (Component B) - 10X Concentrate • PowerLoad™ Concentrate (Component C) - 100X Concentrate • Probenecid (Component D) - Lyophilized sample is kept at -20°C. Water soluble, 100X after solubilization in 1 mL water. […] Store at 4°C. • Thallium sulfate (Tl2SO4) Concentrate (Component G) - 50 mM in water. Store at 4°C • DMSO (dimethyl sulfoxide, Component H) - 1 mL (100%) […]
Data Calculation- The fluorescence intensity of wells containing 3 µM of a standard control ROMK inhibitor of the present invention is used to define the ROMK-sensitive component of thallium flux. Fluorescence in the presence of test compounds is normalized to control values to provide % fluorescence change.

Kir1.1 (ROMK1) = biological target: T2, Kir1.1 (ROMK1) (Homo sapiens, UniProt P48048); test: Electrophysiology Assay (whole cell voltage clamp, IonWorks Quattro)
T2 sequence (P48048 1-391): T1 sequence (P48048 1-391)

| SMILES | IC50 (hROMK (hKir1.1)) [nM] | IC50 (Kir1.1 (ROMK1)) [nM] |
| --- | --- | --- |
| C[C@H]1Cc2cc([C@@H]3CN4CCN(C(=O)Cc5ccc(-n6cnnn6)nc5)C[C@H]4CO3)ccc2C(=O)O1 [Example 33, (3,S)-3-methyl-6-[(3R,9aS)-8-{[6-(1H-tetrazol-1-yl)pyridin-3-yl]acetyl}octahydropyrazino[2,1-c][1,4]oxazin-3-yl]-3,4-dihydro-1H-isochromen-1-one] | 80 | 80 |
| C[C@H]1Cc2cc([C@H]3CN4CCN(C(=O)Cc5ccc(-n6cnnn6)nc5)C[C@H]4CO3)ccc2C(=O)O1 [Example 34, (3S)-3-methyl-6-[(3S,9aS)-8-{[6-(1H-tetrazol-1-yl)pyridin-3-yl]acetyl}octahydropyrazino[2,1-c][1,4]oxazin-3-y]-3,4-dihydro-1H-isochromen-1-one] | 580 | – |
| C[C@H]1Cc2cc([C@H]3CN4CCN(C(=O)Cc5ccc(-n6cnnn6)nc5)C[C@@H]4CO3)ccc2C(=O)O1 [Example 35, (3S)-3-methyl-6-[(3S,9aR)-8-{[6-(1H-tetrazol-1-yl)pyridin-3-yl]acetyl}octahydropyrazino[2,1-c][1,4]oxazin-3-yl]-3,4-dihydro-1H-isochromen-1-one] | 180 | – |
| C[C@@H]1Cc2cc([C@@H]3CN4CCN(C(=O)Cc5ccc(-n6cnnn6)nc5)C[C@H]4CO3)ccc2C(=O)O1 [Example 36] | – | 150 |
